Publication PMC6602975, “Structure and function of the Orc1 BAH-nucleosome complex” (2019)

Tests used:
[1] = biological target: H4K16Q (acetyl mimic) nucleosome (X. laevis); assay: native gel or EMSA
[2] = biological target: Unmodified nucleosome core particle (X. laevis histone octamer on 147 bp Widom-601 DNA) (X. laevis); assay: native gel or EMSA
[3] = biological target: H4K16ac nucleosome (X. laevis | not stated); assay: native gel or EMSA
[4] = biological target: Unmodified nucleosome core particle (X. laevis histone octamer on 147 bp Widom-601 DNA) (X. laevis); assay: crystal structure

Orc1 BAH Lid swap mutant (residues 60–63 NEAA replaced with Sir3 DNVT) (from UniProt P54784 1-214) (domain or fragment)
fold decrease in affinity compared with binding to unmodified nucleosome [1]: 2 fold

Sir3 BAH D205N hypermorphic mutant (from UniProt P06701 1-214) (domain or fragment)
fold increase in affinity relative to H4K16ac nucleosomes [2]: 3.7 fold

Sir3 D205Q with Orc1-swapped residues in the Lid of Loop 2 (from UniProt P06701 1-214) (domain or fragment)
fold difference in affinity compared with unmodified nucleosome [3]: 1.7 fold

Orc1 BAH L79I mutant (from UniProt P54784 1-214) (domain or fragment)
stoichiometry N [4]: 2 | fold increase in affinity compared with the WT domain [2]: 2.8 fold
